Test results as given in PubChem BioAssay (EPA / NIEHS).
“And” between values parts separate entries of the source, which are not always exact repeats. Equal entries are not always repeated. The entries are a selection whose mix differs from that of the whole data set. Where a structure was tested more than once in an assay, its records may differ in their call. The source made the active and inactive calls. How the source made its calls: active means hit-call score of the fitted dose curve at least 0.9, where 1 is the maximum; inactive means score below 0.9.

Sequences of proteins named here, by UniProt entry; tags and fusion partners are left off.
UniProt P35968, whole entry, looked up: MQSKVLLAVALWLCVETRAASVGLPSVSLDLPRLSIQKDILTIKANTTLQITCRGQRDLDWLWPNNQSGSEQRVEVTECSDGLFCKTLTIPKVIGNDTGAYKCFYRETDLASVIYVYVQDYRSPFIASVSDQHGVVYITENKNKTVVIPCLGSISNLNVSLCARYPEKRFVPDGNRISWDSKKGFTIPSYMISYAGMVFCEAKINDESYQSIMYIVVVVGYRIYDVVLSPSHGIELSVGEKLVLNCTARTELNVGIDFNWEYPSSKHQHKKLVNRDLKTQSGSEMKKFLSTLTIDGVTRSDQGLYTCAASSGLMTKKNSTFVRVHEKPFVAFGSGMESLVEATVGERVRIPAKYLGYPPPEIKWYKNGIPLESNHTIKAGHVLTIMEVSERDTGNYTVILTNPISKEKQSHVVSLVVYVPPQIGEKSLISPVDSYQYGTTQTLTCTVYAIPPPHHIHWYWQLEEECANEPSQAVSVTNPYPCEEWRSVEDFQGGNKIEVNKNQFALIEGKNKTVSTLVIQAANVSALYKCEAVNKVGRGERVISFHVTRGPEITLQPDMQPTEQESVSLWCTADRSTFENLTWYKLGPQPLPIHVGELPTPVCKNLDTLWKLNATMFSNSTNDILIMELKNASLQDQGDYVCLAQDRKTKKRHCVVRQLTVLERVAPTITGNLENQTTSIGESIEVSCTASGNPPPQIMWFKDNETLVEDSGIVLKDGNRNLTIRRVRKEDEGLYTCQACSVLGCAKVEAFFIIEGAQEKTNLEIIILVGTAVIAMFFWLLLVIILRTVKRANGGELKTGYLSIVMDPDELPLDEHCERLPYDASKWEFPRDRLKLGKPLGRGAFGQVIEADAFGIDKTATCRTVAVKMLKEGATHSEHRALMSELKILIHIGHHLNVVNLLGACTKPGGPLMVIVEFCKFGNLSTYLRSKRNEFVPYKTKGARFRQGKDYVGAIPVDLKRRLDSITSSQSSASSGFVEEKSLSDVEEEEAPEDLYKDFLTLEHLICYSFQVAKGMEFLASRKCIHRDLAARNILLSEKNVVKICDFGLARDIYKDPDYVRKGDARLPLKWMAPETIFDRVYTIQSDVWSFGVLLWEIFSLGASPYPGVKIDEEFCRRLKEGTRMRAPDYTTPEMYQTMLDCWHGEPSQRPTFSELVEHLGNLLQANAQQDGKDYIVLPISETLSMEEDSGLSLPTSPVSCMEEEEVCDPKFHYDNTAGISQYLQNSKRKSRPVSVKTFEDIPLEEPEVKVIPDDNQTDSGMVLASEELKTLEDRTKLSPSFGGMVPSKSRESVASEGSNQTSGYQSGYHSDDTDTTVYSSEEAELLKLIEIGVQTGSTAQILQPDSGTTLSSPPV

Columns and labels:
[1] = BSK_BE3C_SRB: Viability Assessment in the BioMAP Diversity Plus: BE3C Assay (AID 2283028); details: primary human bronchial epithelial cells;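 on AC50: fitted both ways so AC50 may mark signal gain or loss versus DMSO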
Method in brief: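 Human primary bronchial epithelial cells were exposed to test chemicals for 24 h. Total protein in parallel cultures was then measured by staining with 0.1% sulforhodamine B after 10% TCA fixation, with absorbance read at 560 nm. Activity was fitted bidirectionally against DMSO.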

[2] = read-out: Thrombomodulin, THBD (gene 7056); experiment: BSK_3C_Thrombomodulin: BioMAP Diversity Plus: 3C Assay for Thrombomodulin Biomarker Activity (AID 2283029); details: actives raise or lower the signal; primary human endothelial cells (HUVEC)
Method in brief: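 Read-out is ELISA of thrombomodulin on human umbilical vein endothelium 24 h after chemical dosing. Gain or loss of signal is scored relative to DMSO. Overt cytotoxicity is checked in parallel cultures by sulforhodamine B staining.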

[3] = read-out: Urokinase-type plasminogen activator receptor (uPAR), PLAUR (gene 5329); experiment: BSK_4H_uPAR: BioMAP Diversity Plus: 4H Assay for Urokinase-type plasminogen activator receptor (uPAR) Biomarker Activity (AID 2283030); details: actives raise or lower the signal; primary human endothelial cells (HUVEC)
Method in brief: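 Primary human umbilical vein endothelial cells were exposed to chemical for 24 h before cell-surface uPAR was quantified by ELISA. Activity was fitted bidirectionally against the DMSO negative control baseline.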

[4] = read-out: Vascular endothelial growth factor receptor 2 (Homo sapiens) (UniProt P35968); experiment: BSK_4H_VEGFRII: BioMAP Diversity Plus: 4H Assay for Vascular endothelial growth factor receptor 2 (VEGFR2) Biomarker Activity (AID 2283031); details: actives raise or lower the signal; primary human endothelial cells (HUVEC);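 on AC50: cell-surface VEGFR2 protein level quantified by ELISA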
Method in brief: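 Primary human umbilical vein endothelial cells in the BioMAP 4H system were dosed with test chemical, and 24 h later VEGFRII was measured by ELISA. Activity was fitted bidirectionally against DMSO as negative control and baseline.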

[5] = read-out: Monokine induced gamma interferon (MIG), CXCL9 (gene 4283); experiment: BSK_BE3C_MIG: BioMAP Diversity Plus: BE3C Assay for Monokine induced gamma interferon (MIG) Biomarker Activity (AID 2283035); details: actives raise or lower the signal; primary human bronchial epithelial cells;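 further: MIG protein measured by ELISA in BE3C cultures after 24 h of dosing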
Method in brief: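 ELISA read-out of MIG in human lung bronchial epithelial primary cultures, 24 h post-dosing. Bidirectional curve fit vs DMSO baseline.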

[6] = read-out: Plasminogen activator inhibitor-1 (PAI1), SERPINE1 (gene 5054); experiment: BSK_BE3C_PAI1: BioMAP Diversity Plus: BE3C Assay for Plasminogen activator inhibitor-1 (PAI1) Biomarker Activity (AID 2283037); details: actives raise or lower the signal; primary human bronchial epithelial cells
Method in brief: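 Primary human lung bronchial epithelial cells; chemical dosing; 24 h; PAI-1 measured by ELISA; bidirectional fit referenced to DMSO as negative control.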

[7] = read-out: urokinase plasminogen activator (uPA), PLAU (gene 5328); experiment: BSK_BE3C_uPA: BioMAP Diversity Plus: BE3C Assay for urokinase plasminogen activator (uPA) Biomarker Activity (AID 2283038); details: actives raise or lower the signal; primary human bronchial epithelial cells
Method in brief: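 Human primary bronchial epithelial cells were exposed to chemical for 24 h, then uPA levels were measured by ELISA. Responses were fitted bidirectionally against DMSO as negative control and baseline. Parallel SRB staining of total protein gauged overt cytotoxicity.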

[8] = read-out: Urokinase-type plasminogen activator receptor (uPAR), PLAUR (gene 5329); experiment: BSK_BE3C_uPAR: BioMAP Diversity Plus: BE3C Assay for Urokinase-type plasminogen activator receptor (uPAR) Biomarker Activity (AID 2283039); details: actives raise or lower the signal; primary human bronchial epithelial cells
Method in brief: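 Human bronchial epithelial primary cells; chemical exposure 24 h; uPAR by ELISA; bidirectional fit vs DMSO control.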

[9] = read-out: Interleukin-6 (IL6), IL6 (gene 3569); experiment: BSK_CASM3C_IL6: BioMAP Diversity Plus: CASM3C Assay for Interleukin-6 (IL6) Biomarker Activity for (AID 2283040); details: actives raise or lower the signal; primary human coronary artery smooth muscle cells
[10] = read-out: Tissue plasminogen activator (tPA), PLAT (gene 5327); experiment: BSK_BE3C_tPA: BioMAP Diversity Plus: BE3C Assay for Tissue plasminogen activator (tPA) Biomarker Activity (AID 2283041); details: actives raise or lower the signal; primary human bronchial epithelial cells;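 further: tPA level quantified by ELISA one day after compound addition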
Method in brief: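 Primary human lung bronchial epithelial cultures receive test chemical; after 24 h, tPA is quantified by ELISA, and gain or loss of signal is fitted bidirectionally relative to DMSO baseline.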

[11] = read-out: Interleukin-8 (IL8), CXCL8 (gene 3576); experiment: BSK_CASM3C_IL8: BioMAP Diversity Plus: CASM3C Assay for Interleukin-8 (IL8) Biomarker Activity (AID 2283042); details: actives raise or lower the signal; primary human coronary artery smooth muscle cells;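 further: IL-8 protein level quantified by ELISA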
[12] = read-out: Human Leukocyte Antigen - DR isotype (HLADR), HLA-DRA (gene 3122); experiment: BSK_CASM3C_HLADR: BioMAP Diversity Plus: CASM3C Assay for Human Leukocyte Antigen - DR isotype (HLADR) Biomarker Activity (AID 2283043); details: actives raise or lower the signal; primary human coronary artery smooth muscle cells;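 further: cell-surface HLA-DR protein level quantified by ELISA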
[13] = read-out: Macrophage colony-stimulating factor (MCSF), CSF1 (gene 1435); experiment: BSK_CASM3C_MCSF: BioMAP Diversity Plus: CASM3C Assay for Macrophage colony-stimulating factor (MCSF) Biomarker Activity (AID 2283044); details: actives raise or lower the signal; primary human coronary artery smooth muscle cells;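 further: M-CSF protein amount quantified by ELISA after 24 h exposure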
[14] = read-out: Low-density lipoprotein receptor (LDLR), LDLR (gene 3949); experiment: BSK_CASM3C_LDLR: BioMAP Diversity Plus: CASM3C Assay for Low-density lipoprotein receptor (LDLR) Biomarker Activity (AID 2283045); details: actives raise or lower the signal; primary human coronary artery smooth muscle cells;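 further: LDLR protein level on the cell surface quantified by ELISA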
[15] = read-out: Monocyte Chemoattractant Protein-1 (MCP1), CCL2 (gene 6347); experiment: BSK_CASM3C_MCP1: BioMAP Diversity Plus: CASM3C Assay for Monocyte Chemoattractant Protein-1 (MCP1) Biomarker Activity (AID 2283046); details: actives raise or lower the signal; primary human coronary artery smooth muscle cells;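 further: MCP-1 level quantified by ELISA 24 h after dosing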
[16] = read-out: Human Leukocyte Antigen - DR isotype (HLADR), HLA-DRA (gene 3122); experiment: BSK_BE3C_HLADR: BioMAP Diversity Plus: BE3C Assay for Human Leukocyte Antigen - DR isotype (HLADR) Biomarker Activity (AID 2283032); details: actives raise or lower the signal; primary human bronchial epithelial cells
Method in brief: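 ELISA read-out of HLA-DR on human lung bronchial epithelial primary cells, measured 24 h post-dosing. Both increases and decreases were scored relative to DMSO vehicle.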

[17] = read-out: Vascular cell adhesion molecule 1 (VCAM1), VCAM1 (gene 7412); experiment: BSK_4H_VCAM1: BioMAP Diversity Plus: 4H Assay for Vascular cell adhesion molecule 1 (VCAM1) Biomarker Activity (AID 2283033); details: actives raise or lower the signal; primary human endothelial cells (HUVEC)
Method in brief: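 ELISA read-out of VCAM-1 on human umbilical vein endothelium 24 hours after chemical dosing; gain or loss of signal was fitted relative to DMSO, with sulforhodamine B staining of parallel cultures flagging overt cytotoxicity.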

[18] = read-out: Transforming growth factor beta 1 (TGFb1), TGFB1 (gene 7040); experiment: BSK_BE3C_TGFb1: BioMAP Diversity Plus: BE3C Assay for Transforming growth factor beta 1 (TGFb1) Biomarker Activity (AID 2283036); details: actives raise or lower the signal; primary human bronchial epithelial cells
Method in brief: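 Primary human lung bronchial epithelial cells; compound exposure 24 h; TGF-b1 by ELISA; bidirectional fit, DMSO baseline. Parallel SRB total-protein staining for cytotoxicity.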

[19] = BSK_CASM3C_Proliferation: Cell Proliferation Assessment in the BioMAP Diversity Plus: CASM3C Assay (AID 2283047); details: primary human coronary artery smooth muscle cells;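 further: sulforhodamine B total protein stain as relative cell number at 560 nm; sub-confluent cells exposed 48 h before staining; fitted both ways against DMSO so gain or loss of cell number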
[20] = read-out: Interferon-gamma inducible Protein 10 (IP10), CXCL10 (gene 3627); experiment: BSK_BE3C_IP10: BioMAP Diversity Plus: BE3C Assay for Interferon-gamma inducible Protein 10 (IP10) Biomarker Activity (AID 2283034); details: actives raise or lower the signal; primary human bronchial epithelial cells
Method in brief: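 Chemical is dosed onto human lung bronchial epithelial primary cells, cultures are incubated 24 h, and IP-10 is then quantified by ELISA. Gain or loss of signal is fitted in both directions relative to DMSO.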

Measured: AC50

O=C1C2CC=CCC2C(=O)N1SC(Cl)(Cl)C(Cl)Cl (stereo not drawn)
active: [3] 16.9 µM | [4] 14.4 µM | [6] 5.04 µM | [7] 4.97 µM | [9] 5.5 µM | [11] 13 µM | [12] 5.49 µM | [13] 7.92 µM | [15] 9.33 µM
inactive: [1] | [2] | [5] | [8] | [10] | [14]

Cc1cc([N+](=O)[O-])cc([N+](=O)[O-])c1O
active: [3] 20 µM | [16] 5.19 µM | [17] 17.5 µM | [18] 3.97 µM | [6] 9.01 µM | [7] 14.2 µM | [8] 8.41 µM
inactive: [1] | [2] | [4] | [5] | [9] | [10] | [11] | [12] | [13] | [14] | [15] | [19]

CN(C(=O)Cc1cccc2occc12)[C@H]1CC[C@@]2(CCCO2)C[C@@H]1N1CCCC1
inactive: [1] | [2] | [3] | [4] | [16] | [17] | [20] | [5] | [18] | [6] | [7] | [8] | [9] | [10] | [11] | [12] | [13] | [14] | [15] | [19]

O=[N+]([O-])c1ccc([N+](=O)[O-])cc1
inactive: [1] | [2] | [3] | [4] | [16] | [17] | [20] | [5] | [18] | [6] | [7] | [8] | [9] | [10] | [11] | [12] | [13] | [14] | [15] | [19]

CC(C)OP(=S)(OC(C)C)SCCNS(=O)(=O)c1ccccc1
active: [1] 20 µM and 25 µM and 21.6 µM | [3] 30.5 µM and 36.4 µM and 30.7 µM | [17] 32.3 µM and 34.2 µM | [20] 33.4 µM and 27.7 µM and 28.1 µM | [18] 5.04 µM | [6] 15.2 µM and 27.4 µM | [7] 18 µM | [14] 19.5 µM | [19] 29.4 µM and 25.8 µM
inactive: [2] | [17] | [5] | [18] | [6] | [7] | [8] | [9] | [10] | [11] | [12] | [13] | [14] | [15] | [19]

O=C(Cl)Oc1ccccc1
inactive: [1] | [2] | [3] | [4] | [16] | [17] | [20] | [5] | [18] | [6] | [7] | [8] | [9] | [10] | [11] | [12] | [13] | [14] | [15] | [19]
